By Km is commonly meant the concentration of substrate that gives half-maximal velocity. One may read the kcat as the number of substrate molecules converted per active site and unit of time at saturation. By kcat/Km is commonly meant the second-order rate constant that governs catalysis at low substrate concentration.

The series concerns Gentiobiose. As to the kind of experiment: purified protein, by the assay type. The conditions noted are these: other: PAHBAH assay, 100 mM HEPES pH 6.5, 37 °C.

In the case of “BpGH3-AR8MLG (Blautia producta ATCC 27340 = DSM 2950)”, the Km was 240 ± 40 µM, the kcat was found to be 14 ± 0.2 s⁻¹ and the catalytic efficiency (kcat/Km) amounted to 58000 M⁻¹ s⁻¹.

“BpGH3-X62MLG (Blautia producta ATCC 27340 = DSM 2950)”: the Km was determined as 240 ± 30 µM, the kcat was determined as 14 ± 0.2 s⁻¹ and the kcat/Km came out at 58000 M⁻¹ s⁻¹.

These data come from publication PMC10318527, “Utilization of dietary mixed-linkage β-glucans by the Firmicute Blautia producta” (The Journal of Biological Chemistry, 2023).
